Antibody variant affinities, Ab-14 light chain, assay B

The measurements come from Li et al. 2023 (doi:10.1038/s41467-023-39022-2) through the FLAb antibody collection.

Binding partner: SARS-CoV-2 spike HR2 peptide, sequence PDVDLGDISGINAS.

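The parent was found by panning a naive human phage display library on the peptide. These sequences belong to a second round, designed from the earlier measurements on random variants of the parent. Several design methods are mixed in this list. The assay is AlphaSeq: two haploid yeast populations carry antibody and antigen on their surface. Pairs that bind mate more often; barcode pairs of the diploids are counted by sequencing. Each replicate has its own calibration line, from reference interactions of the BCL2 family. The assay was run in six technical replicates.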

Parent: Ab-14, a human scFv built as VH, a (GGGGS)3 linker, VL. Only the CDRs of the light chain vary.
VH: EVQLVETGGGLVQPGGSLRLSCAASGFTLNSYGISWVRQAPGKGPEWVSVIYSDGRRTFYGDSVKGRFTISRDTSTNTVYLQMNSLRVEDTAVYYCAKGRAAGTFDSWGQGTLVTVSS
VL: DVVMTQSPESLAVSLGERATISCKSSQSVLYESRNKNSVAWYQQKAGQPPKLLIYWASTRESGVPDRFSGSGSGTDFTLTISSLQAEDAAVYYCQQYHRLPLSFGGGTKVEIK

The parent's light chain CDRs are KSSQSVLYESRNKNSVA, WASTRES, QQYHRLPLS; each variant's own CDRs replace them letter for letter.
Each Kd is an estimate from the mating assay, the geometric mean of the replicates in which the pair was seen; lower is stronger.
Where no diploid with the target was found in any replicate, the entry reads "not detected": below detection, most likely a poor binder, though not proof of it.
Values of this round are not directly comparable with the first-round values of the same sequences.
Nonspecific signal, from three strains lacking the peptide, appeared in 4% of pairings of all light chain designs, centred on 430 nM (5% of these signals below 38 nM); values are not corrected for it. The control count says in how many pairings with the empty strains this scFv gave a signal.
The authors' rule: three or more of the six replicates give a measured affinity, fewer mean a poor binder.
Of ten entries with the parent sequence, four were seen in most replicates (averages 2.2 nM to 240 nM), three in one and three in none, so single entries are noisy.

CDR-L1 | CDR-L2 | CDR-L3 | apparent Kd | replicates with signal | control signals
MFSQGVMVGWLTRNSVA | NSETREN | QQYDRLPLS | 15 nM | 6 of 6 | 0 of 18
KLSQSVLYESRNKNSVA | NASTRLW | QQYHRLPLS | 480 pM | 6 of 6 | 1 of 18
KLSEFMRGLMGRKDSIA | DNNTRGS | QQYDRLPLS | 38 nM | 6 of 6 | 0 of 18
KLREVIHVESKQKNNVA | DNSTRED | QDYHRLPLS | 22 nM | 6 of 6 | 0 of 18
KISQSVNFLGKNKNSVA | QMSTRES | QQYDRLPLS | 1.7 nM | 6 of 6 | 0 of 18
KISYLDYRGSQGHNNIA | EGSQRAE | QQYIRLPLN | 1.8 nM | 6 of 6 | 2 of 18
SLAESAHLESRNKNSVA | DNTTREY | QHYDRLPLS | 1.8 µM | 3 of 6 | 3 of 18
SMQVYTENFMERGQNIA | DVSATTA | QQYHRLPLA | 4.2 nM | 6 of 6 | 0 of 18
KSSQSVLNESRNKNSVA | DASTRES | QQYHRLPLS | 5.1 nM | 6 of 6 | 1 of 18
KVPQSVPYESRNKNSVA | EASTRES | QQYHRLPLS | 530 pM | 6 of 6 | 0 of 18
KLSQSVLYEQRNKNSVA | NASQRES | QQYHRLPLS | 560 pM | 6 of 6 | 1 of 18
KYSQSVLYESRNKNSVA | WASTRES | QQYHELPLS | not detected | 0 of 6 | 0 of 18
KLLQEVQGRSQNRNSVA | HNSTRED | QQYDRLPLV | 140 nM | 3 of 6 | 1 of 18
KVSEFMRGLMKLKDSIA | DNETRGA | QQYDRLPLS | 62 nM | 5 of 6 | 1 of 18
KLSQSWLYESRNKNAVA | NASQRES | QQYHRLPLS | 2.0 nM | 6 of 6 | 0 of 18
KSSQSVLYESRNSNSVA | DASTRES | QQYHRLPLS | 1.9 nM | 6 of 6 | 0 of 18
KLSQQNLYESRMKNSVA | MASQREM | QQYHRLPLS | 3.0 nM | 6 of 6 | 2 of 18
MLSSVLHMLGAKKNSIA | DNQLRAD | QQYHRLPLM | 5.4 nM | 6 of 6 | 0 of 18
KSSISYLYESRNENSVA | EASTREE | QQYHRLPLS | 1.5 nM | 6 of 6 | 2 of 18
MVTQMAMTGMMSKRSVA | NAETRES | QQYHRLPLI | 7.9 nM | 6 of 6 | 0 of 18
KSSQSVLYESRNKNSVA | AASTRES | QQYHRLKLS | 5.0 nM | 6 of 6 | 0 of 18
KVSEFMRGLMKMKDSIA | DNNTRGA | QQYDRLPLS | 31 nM | 6 of 6 | 1 of 18
FLSGSVLMESRNKNSVA | SADTRLS | QQYHRLPLS | 1.0 nM | 6 of 6 | 0 of 18
KINERMRMGENQQHSIA | NATEIVK | QQYHNLPLG | 2.5 nM | 6 of 6 | 0 of 18
IVSQLMIWGMHAKNSIA | EGETRLN | QQYDRLPLF | 68 nM | 4 of 6 | 0 of 18
KSSQSVLYESRNKNSVA | WASTRES | QQYHRFPLV | not detected | 0 of 6 | 0 of 18
TVSQVHEMLTRNKNSVA | DMNTRES | QQYDRLPLS | not detected | 0 of 6 | 0 of 18
KVSQSWLYEQRNKNSVA | NASTRES | QQYHRLPLS | 720 pM | 6 of 6 | 2 of 18
KLPQSTLYESRNKNSVA | HASQRES | QQYHRLPLS | 580 pM | 6 of 6 | 0 of 18
KLEQSQLYESRNKNSVA | EASTRES | QQYHRLPLS | 1.5 nM | 6 of 6 | 1 of 18
TISTSMRYEMSLKNAIA | NAQTRES | QQYHRLPIS | 33 nM | 6 of 6 | 0 of 18
KVSWSDELQSRNKGQVA | SASTRES | QQYHRLPLS | 8.7 nM | 5 of 6 | 0 of 18
KSSPVVLYESGNKNSVA | NASTRMS | QQYHRLPLS | 2.3 nM | 6 of 6 | 0 of 18
KVSQSDLMESRNKNSVA | EASTRES | QQYHRLPLS | 770 pM | 6 of 6 | 1 of 18
HSSQSELYESRNKNSVA | NASTRMS | QQYHRLPLS | 2.8 nM | 6 of 6 | 0 of 18
KVSEFMKGLMMRKDSIA | DNNTRGA | QQYDRLPLS | 210 nM | 6 of 6 | 1 of 18
TLSQMSGVESVKHNSVA | ENSTREN | QQYDRLPLS | 12 nM | 6 of 6 | 0 of 18
KSSQSVLYEARNKNSVA | KASTRES | QQYHRLPLS | 160 nM | 6 of 6 | 4 of 18
KLRESIHVESKQKNNVA | DNSTREY | QDYHRLPLS | 170 nM | 5 of 6 | 2 of 18
KLSQSVLMESRNKNSVA | HASTRLS | QQYHRLPLS | 1.3 nM | 6 of 6 | 0 of 18
ALALTLHQVDSQMNNIA | EGMERES | QQYNRLPLG | 32 nM | 6 of 6 | 3 of 18
KSSQSFLYESRNKNSVA | WASTQES | QQYHRLPLS | not detected | 0 of 6 | 1 of 18
KQSQSTLQESRNKNSVA | NCSTRES | QQYHRLPLS | 1.8 nM | 6 of 6 | 1 of 18
HIGLATMLQETVRNSVA | NNSTRED | QQYDRLPLS | 370 nM | 3 of 6 | 0 of 18
MIYGAARELGLAANSIA | DNVTRYN | QQYNRLPLS | 110 nM | 4 of 6 | 2 of 18
KLSMLVDYMSATHSSVA | QTSTREE | QQYHRLPLS | 3.1 nM | 6 of 6 | 2 of 18
KVSQEVDYQSRNKNSVA | DASQREE | QQYHRLPLS | 27 nM | 6 of 6 | 1 of 18
KLSQSVGYESRNKNSVA | EASTREQ | QQYHRLPLS | 620 pM | 6 of 6 | 0 of 18
KVMQSYLGEMRNVNSVA | NASTRES | QQYHRLPLS | 1.3 nM | 6 of 6 | 1 of 18
MISQLYNMGQFAINSVA | QASLRYN | QQYDRLPLI | 2.0 nM | 6 of 6 | 0 of 18
HLSPSELYESRNKNSVA | NASTRES | QQYHRLPLS | 4.9 nM | 6 of 6 | 0 of 18
KSSQQVLGESRNMNSVA | NASTREA | QQYHRLPLS | 870 pM | 6 of 6 | 0 of 18
RLRNSWNGWYNDWASIA | DANMYAP | QQYQRLPLA | 59 nM | 6 of 6 | 4 of 18
MISDLMLYGSRAKNPIA | NASMREY | QQYHRLPLE | 41 nM | 6 of 6 | 1 of 18
KFNQSLLYESRNKNSVA | NADTRES | QQYHRLPLS | 590 pM | 6 of 6 | 0 of 18
KCDQWVDYGDRNKNSVA | DASTRES | QQYHRLPLS | 600 pM | 6 of 6 | 0 of 18
KVSQEGLYESRNKNSVA | DASTRES | QQYHRLPLS | 3.7 nM | 6 of 6 | 1 of 18
KVSQSKLYESRNKNSVA | EASTRES | QQYHRLPLS | 930 pM | 6 of 6 | 0 of 18

Extract of 4 entries:

| CDR-L1 | CDR-L2 | CDR-L3 | apparent Kd | replicates with signal | control signals |
|---|---|---|---|---|---|
| KLREVIHVESKQKNNVA | DNSTRED | QDYHRLPLS | 22 nM | 6 of 6 | 0 of 18 |
| RLRNSWNGWYNDWASIA | DANMYAP | QQYQRLPLA | 59 nM | 6 of 6 | 4 of 18 |
| KLSQSVLYESRNKNSVA | NASTRLW | QQYHRLPLS | 480 pM | 6 of 6 | 1 of 18 |
| KCDQWVDYGDRNKNSVA | DASTRES | QQYHRLPLS | 600 pM | 6 of 6 | 0 of 18 |